Legend:
HsLysRS = HsLysRS (Homo sapiens, UniProt Q15046); test: ATP hydrolysis assay (Kinase-Glo) on HsLysRS; format: biochemical
Experimental: The ATP hydrolysis assays were based on Kinase-Glo luminescent Kit (Promega). The experiment was carried out in Corning 384-well white flat bottom microplates. The buffer in the reaction contains 25 mM Hepes pH 7.4, 140 mM NaCl, 40 mM MgCl2, 30 mM KCl, 1 mM TCEP, 0.1 mg·mL^−1 BSA, and 0.004% Tween-20. The compounds were diluted to different concentrations with a 5-fold gradient.
For LysRS assays, DMSO was added into negative control wells and L-lysine was removed in positive control wells. 100 nM LysRS in 2.5 μL Hepes buffer was mixed with compounds and incubated for 10 min. Then 5 μL substrate mixture (2 μM ATP, 10 μM L-lysine and 31 nM pyrophosphatase) was added to start the reaction at 37 °C and incubated for 6 h.
When the reaction reaches the planned time, 10 μL diluted Kinase-Glo reagent (1/50 diluted with a buffer containing 50 mM Tris pH 7.5 and 5% glycerol) was added and incubated for 15 min. Luminescence was measured on the Magellan plate reader (Tecan) and nonlinear regression was performed with Prism (GraphPad).

Amino acid sequences for entries named in this document (tags omitted). Residues count along the entry.
UniProt Q15046, 70-581 limits assumed: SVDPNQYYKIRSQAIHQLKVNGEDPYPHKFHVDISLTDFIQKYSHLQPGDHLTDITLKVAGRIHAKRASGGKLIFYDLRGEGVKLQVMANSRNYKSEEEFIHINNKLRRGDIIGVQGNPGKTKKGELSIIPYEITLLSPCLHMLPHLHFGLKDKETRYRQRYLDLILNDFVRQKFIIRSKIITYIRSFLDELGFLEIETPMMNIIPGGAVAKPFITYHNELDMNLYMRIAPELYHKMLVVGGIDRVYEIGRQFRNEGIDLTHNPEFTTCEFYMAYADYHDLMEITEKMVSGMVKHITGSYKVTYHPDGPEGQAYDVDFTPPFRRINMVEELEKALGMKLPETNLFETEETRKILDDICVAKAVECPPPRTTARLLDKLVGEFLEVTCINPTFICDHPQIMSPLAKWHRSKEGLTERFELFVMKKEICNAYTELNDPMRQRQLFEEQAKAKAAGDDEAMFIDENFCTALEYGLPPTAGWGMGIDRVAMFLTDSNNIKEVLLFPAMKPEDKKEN
UniProt Q9UM73, 1068-1410 limits assumed: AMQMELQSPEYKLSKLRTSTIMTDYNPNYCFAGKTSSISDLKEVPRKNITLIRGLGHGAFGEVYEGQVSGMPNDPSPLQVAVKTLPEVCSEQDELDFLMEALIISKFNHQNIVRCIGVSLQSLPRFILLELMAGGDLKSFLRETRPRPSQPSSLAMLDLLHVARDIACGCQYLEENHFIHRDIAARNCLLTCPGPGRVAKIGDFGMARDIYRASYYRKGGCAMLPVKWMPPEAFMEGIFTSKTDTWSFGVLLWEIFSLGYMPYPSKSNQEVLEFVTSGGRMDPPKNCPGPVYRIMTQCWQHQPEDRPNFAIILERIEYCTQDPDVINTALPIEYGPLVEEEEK

ALK = ALK (Homo sapiens, UniProt Q9UM73); test: ATP hydrolysis assay (Kinase-Glo) on ALK

COc1ccc(OC)c(Nc2ncnc(Nc3ccccc3S(=O)(=O)CCCCNC(=O)[C@@H](N)CCCCN)n2)c1
IC50 against HsLysRS (HsLysRS): 26 µM | IC50 (HsLysRS; read-out: IC50 against HsLysRS): 11 µM | IC50 against ALK (ALK): > 170 µM | IC50 (ALK; read-out: IC50 against ALK): > 79 µM
